Measurements from PubChem BioAssay AID624038 (The Scripps Research Institute Molecular Screening Center, 2012).
The entries are a selection whose mix differs from that of the whole data set. The source made the active and inactive calls.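 Rule for the calls: active = activation above the run cutoff, the mean activation of all test compounds plus 3 SD (cut at about 18% in these data); inactive = the rest.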

By UniProt entry, the sequences of proteins in these tests, tags left out.
UniProt P08912, whole entry, looked up: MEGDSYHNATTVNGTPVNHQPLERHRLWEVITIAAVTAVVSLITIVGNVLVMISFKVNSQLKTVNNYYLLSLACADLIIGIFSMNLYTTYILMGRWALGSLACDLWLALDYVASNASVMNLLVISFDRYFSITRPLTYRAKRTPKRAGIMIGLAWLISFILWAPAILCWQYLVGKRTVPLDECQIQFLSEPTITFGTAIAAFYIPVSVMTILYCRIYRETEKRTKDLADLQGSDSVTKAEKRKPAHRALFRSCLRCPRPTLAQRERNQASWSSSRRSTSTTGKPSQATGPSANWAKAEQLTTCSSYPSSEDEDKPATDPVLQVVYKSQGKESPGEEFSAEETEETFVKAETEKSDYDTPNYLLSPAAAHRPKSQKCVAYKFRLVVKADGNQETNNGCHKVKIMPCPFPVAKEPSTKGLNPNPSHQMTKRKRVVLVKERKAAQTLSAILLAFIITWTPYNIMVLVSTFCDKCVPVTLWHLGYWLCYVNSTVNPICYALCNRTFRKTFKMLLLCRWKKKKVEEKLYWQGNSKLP

Each compound was assayed against Muscarinic acetylcholine receptor M5 (Homo sapiens) (UniProt P08912) (assay: human M5 muscarinic receptor positive allosteric modulators, primary screen, CHO-K1 cells, Fluo-8 calcium fluorescence (AID 624038)). Settings: CHO-K1 hM5, Fluo-8 calcium, ACh EC20 PAM; at 3 µM; hits give high values; 0% = ACh EC20, 100% = ACh EC100.

Row | Compound | activation
1 | Nc1ccc([As](=O)(O)c2ccc([N+](=O)[O-])cc2)cc1 | inactive: -7.3%
2 | C(Cc1nn[nH]n1)Cc1nn[nH]n1 | inactive: 0.88%
3 | O=[As](O)(c1ccccc1)c1ccc(O)cc1 | inactive: -3.14%
4 | CC(=O)NC(SC(=S)N(C)C)C(Cl)(Cl)Cl (centres undefined) | inactive: -1.33%
5 | O=[N+]([O-])c1ncn(CCn2cnc([N+](=O)[O-])n2)n1 | inactive: 9.55%
6 | O=[N+]([O-])c1ccc(O)c(/C=N/Nc2ccc([N+](=O)[O-])cc2[N+](=O)[O-])c1 | inactive: -4.37%
7 | O=P(Nc1nc2ccccc2s1)(c1ccccc1)c1ccccc1 | inactive: -3.64%
8 | C[C@H]1OP(=O)(Oc2ccccc2)[C@H](O)[C@H](O)[C@H]1N=[N+]=[N-] (some centres undefined) | inactive: -2.17%
9 | O=P(Nc1ccccn1)(c1ccc(Br)cc1)c1ccc(Br)cc1 | inactive: 1.58%
10 | Nc1ccc(CCCCOc2ccccc2)cc1 | inactive: 0.09%
11 | COc1ccc(N)c([N+](=O)[O-])c1[N+](=O)[O-] | inactive: 6.3%
12 | c1nnnn1CCn1cnnn1 | inactive: 1.56%
13 | O=P(Nc1nccs1)(c1ccccc1)c1ccccc1 | inactive: 5.36%
14 | CC(C)C(=O)NC(Sc1ccccc1)C(Cl)(Cl)Cl (centres undefined) | inactive: 15.2%
15 | CC(=O)Nc1ccc([As](=O)(O)O)c(O)c1 | inactive: 0.75%
16 | CC(=O)Nc1ccc(Oc2c([N+](=O)[O-])cc([N+](=O)[O-])cc2[N+](=O)[O-])cc1 | inactive: 2.56%
17 | CCN(CC)CCOC(=O)C(O)(c1ccccc1)c1ccccc1 | inactive: -18.3%
18 | Cc1ccccc1CN(C)C(=O)COC(=O)C(O)(c1ccccc1)c1ccccc1 | inactive: 6.05%
19 | C[C@@H]1C=CCP(=O)(Oc2ccccc2)O1 (some centres undefined) | inactive: -2.05%
20 | C[C@H]1OP(=O)(Oc2ccccc2)C[C@@H]2O[C@@H]21 (some centres undefined) | inactive: -2.72%
21 | N#C/C(=C\c1ccc(N(CCBr)CCBr)cc1)C(N)=O | inactive: -3.21%
22 | CC(=O)c1ccc(N2CC2c2ccncc2)cc1 (centres undefined) | inactive: -3.58%

Row | Compound | activation
23 | CC1C(=O)OC2CCN3CC=C(COC(=O)C(C)(O)C1(C)O)C23 (centres undefined) | inactive: -3.68%
24 | COC(=O)C1(C)COP(=O)(NCc2ccccc2)OC1 (centres undefined) | inactive: -4.5%
25 | CC(C)(C)C(=O)NC(Sc1ccccc1)C(Cl)(Cl)Cl (centres undefined) | inactive: 1.97%
26 | CCc1cc(O)c([N+](=O)[O-])c(C)c1[N+](=O)[O-] | inactive: 4.7%
27 | O=P1(Nc2nc3ccc(Cl)cc3s2)COc2ccccc2O1 (centres undefined) | inactive: -3.02%
28 | CCOc1ccc(C2=NCC(CBr)S2)cc1 (centres undefined) | inactive: -2.54%
29 | Cc1ccccc1OP(=O)(Nc1ccccn1)Oc1ccccc1C | inactive: -14.4%
30 | CC(NC(=O)COC(=O)C(O)(c1ccccc1)c1ccccc1)c1ccccc1 (centres undefined) | inactive: -15.6%
31 | CN(C)C(=O)Oc1noc2ccccc12 | inactive: -2.02%
32 | O=c1c2cc([N+](=O)[O-])ccc2[nH]c2c([N+](=O)[O-])cc([N+](=O)[O-])cc12 | inactive: -14.4%
33 | CCN(C(=O)COC(=O)C(O)(c1ccccc1)c1ccccc1)c1c(N)n(Cc2ccccc2)c(=O)[nH]c1=O | inactive: -0.86%
34 | O=C(OC1CN2CCC1CC2)c1ccccc1 (centres undefined) | inactive: -16.6%
35 | Clc1ccc(N2CCN(Cc3c[nH]c4ncccc34)CC2)cc1 | inactive: -3.83%
36 | CCC(=O)N1C2C3N(C(=O)CC)C1C1N(C(=O)CC)C(C(N1C(=O)CC)N3C(=O)CC)N2C(=O)CC | inactive: -6.22%
37 | COC(=O)c1cc2c(s1)N=C(c1ccccc1)N(C)P2(=O)N1CCOCC1 (centres undefined) | inactive: 1.91%
38 | CC(=O)NC(SC(=S)N(CC(C)C)CC(C)C)C(Cl)(Cl)Cl (centres undefined) | inactive: 1.36%
39 | Cc1ccc(OP(=O)(Nc2ccccn2)Oc2ccc(C)cc2)cc1 | inactive: -3.42%
40 | CC1C(=O)OC2CCN3CC4OC4(COC(=O)C(C)(O)C1(C)O)C23 (centres undefined) | inactive: 7.8%
41 | O=P1(N(CCCl)CCCl)OCCC2CCCCN21 (centres undefined) | inactive: 0.49%
42 | c1ccc(-c2nn[nH]n2)c(-c2nn[nH]n2)c1 | inactive: 11.2%
43 | Cc1ccc(NP(=O)(Oc2cccc(C)c2)Oc2cccc(C)c2)nc1 | inactive: 9.35%
44 | C=C1C(=O)OC2CCN3CC=C(COC(=O)C(C)(O)C4(CO4)C1C)C23 (centres undefined) | inactive: -1.89%

Row | Compound | activation
45 | O=C(NC1CCS(=O)(=O)C1)NP(=S)(Oc1ccccc1)Oc1ccccc1 (centres undefined) | inactive: 0.4%
46 | CCNC(=S)/N=C(\N)N[N+](=O)[O-] | inactive: 0.55%
47 | Nc1cccc2ccc([As](=O)(O)O)cc12 | inactive: -0.28%
48 | CCN(N=Nc1nonc1N)c1nonc1N | inactive: -2.02%
49 | CCOP(=O)(Nc1ccccc1)OCC | inactive: 8.68%
50 | Cc1cc(SC(NC(=O)c2ccc(F)cc2)C(Cl)(Cl)Cl)ncn1 (centres undefined) | inactive: -3.64%
51 | CN(C(=O)Cc1ccc(Cl)c(Cl)c1)[C@H]1CCCC[C@@H]1N1CCCC1 | inactive: -5.33%
52 | Cc1ccc(NP(=O)(Oc2ccccc2F)Oc2ccccc2F)nc1 | inactive: -17.1%
53 | CN(C)P(=O)(N(C)C)n1c(Nc2ccccc2)nnc1-c1ccccc1 | inactive: 0.1%
54 | O=P(Nc1nc2ccc(Cl)cc2s1)(c1ccccc1)c1ccccc1 | inactive: -19.4%
55 | O=C(O)c1ccccc1[As](=O)(O)O | inactive: 4.13%
56 | CC(=O)Nc1ccc([As](=O)(O)O)cc1 | inactive: -3.16%
57 | CC(=O)O[C@]1(C)C(=O)OC/C2=C/CN(C)CCC(OC(=O)[C@@](O)(C(C)O)C[C@H]1C)C2=O (some centres undefined) | inactive: -2.24%
58 | CCCC1OP(N)(=O)OCC1CC (centres undefined) | inactive: 1.21%
59 | O=[N+]([O-])C1C(O)C(O)C([N+](=O)[O-])C(O)C1O (centres undefined) | inactive: -2.94%
60 | Oc1ccccc1CNc1ccccn1 | inactive: 3.78%
61 | O=C(NC(Sc1ccncn1)C(Cl)(Cl)Cl)c1ccccc1 (centres undefined) | inactive: -1.75%
62 | CC(C)CC(=O)NC(Sc1ccc(Cl)cc1)C(Cl)(Cl)Cl (centres undefined) | inactive: -2.45%
63 | Nc1cc(N)c2nonc2c1[N+](=O)[O-] | inactive: -10.6%
64 | Clc1ccc(Cl)c(NC2=NCC(CBr)S2)c1 (centres undefined) | inactive: -1.49%
